Earlier results in patent US5571832A (priority 1994, dated 1996).

Assays:
[1] = tested on: kappa opioid receptors; conditions: cited from earlier work
[2] = tested on: sigma receptor; conditions: cited from earlier work

Row | SMILES | kappa opioid receptor ligand [1] | sigma ligand potency and selectivity [2]
1 | CN(C(=O)Cc1ccc(Cl)c(Cl)c1)[C@@H]1CCCC[C@H]1N1CCCC1 (relative stereo) | highly selective ligand for kappa opioid receptors | 
2 | CN(C(=O)Cc1ccc(Cl)c(Cl)c1)[C@H]1CCCC[C@H]1N1CCCC1 (relative stereo) |  | potent and selective sigma ligands
